# PubChem BioAssay AID739 (SRMLSC, 2007)
# The entries are a selection whose mix differs from that of the whole data set. Calls of active or inactive are those of the source. Rule as the data show it: active = inhibition above about 30%; inactive = the rest.
# Test: phenotypic screen on post-Golgi transport, primary screen (AID 739);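 also: yeast cells grown in 1536-well plates; yeast grown about 18 h at 30C before absorbance read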
# Settings: post-Golgi transport phenotypic cell assay; at 10 µM; hits give high values
row,Structure (SMILES),inhibition
1,CCOP(=O)(Nc1ccccc1)OCC,inactive: 7.47%
2,CC(C)CC(=O)NC(Sc1ccc(Cl)cc1)C(Cl)(Cl)Cl (centres undefined),inactive: -7.98%
3,Cc1c2non([O-])c-2c(C)[n+](=O)[n+]1[O-],inactive: 1.46%
4,Oc1ccccc1CNc1ccccn1,inactive: -6.63%
5,CC(=O)N1C2C3N(C(C)=O)C1C1N(C(C)=O)C(C(N1C(C)=O)N3C(C)=O)N2C(C)=O,inactive: -1.41%
6,O=[N+]([O-])c1cccc2n[nH]nc12,inactive: -4.25%
7,CCc1nc2c(n1)c1c(non1O)c1c2no[n+]1[O-],inactive: 1.77%
8,CC1CCN(C(=O)Oc2c(Cl)cc(Cl)c3cccnc23)CC1,inactive: -0.95%
9,O=C(OC1CN2CCC1CC2)c1cccc(Cl)c1 (centres undefined),inactive: 3.98%
10,O=P(Nc1nccs1)(c1ccccc1)c1ccccc1,inactive: 1.24%
11,c1nnnn1CCn1cnnn1,inactive: -6.34%
12,O=P1(Nc2nc3ccc(Cl)cc3s2)COc2ccccc2O1 (centres undefined),inactive: 2.96%
13,CCOC(=O)NC(Sc1ccccc1)C(Cl)(Cl)Cl (centres undefined),inactive: -0.48%
14,COC(=O)c1cc2c(s1)N=C(c1ccccc1)N(C)P2(=O)N1CCOCC1 (centres undefined),inactive: 17.5%
15,CCC(=O)N1C2C3N(C(=O)CC)C1C1N(C(=O)CC)C(C(N1C(=O)CC)N3C(=O)CC)N2C(=O)CC,inactive: -1.25%
16,O=P(Nc1nccs1)(c1ccccc1)c1nc2ccccc2s1 (centres undefined),inactive: -1.08%
17,CCOP1(=S)c2c(C)nn(CCC#N)c2N=C(c2ccccc2F)N1C (centres undefined),inactive: 6.36%
18,O=[N+]([O-])c1ccc2c(c1)nnn2O,inactive: -3.97%
19,CCOP1(=S)c2c(C)nn(CCC#N)c2N=C(c2ccc(F)cc2)N1C (centres undefined),inactive: 13.2%
20,Cc1cccc(OCC(=O)OC2CN3CCC2CC3)c1 (centres undefined),inactive: 4.23%
21,O=P1(Nc2ccccn2)COc2ccccc2OC1,inactive: -1.83%
22,Clc1n[nH]nc1-c1nn[nH][15n]1,inactive: 4.52%
23,Cc1nn(-c2ccccc2)c2c1P(=O)(N1CCOCC1)N(C)C(c1ccccc1)=N2 (centres undefined),inactive: 3.04%
24,Cc1ccc(OCC(=O)OC2CN3CCC2CC3)cc1 (centres undefined),inactive: 12.2%
25,O=P1(Nc2ccc(Br)cn2)COc2ccccc2OC1,inactive: 0.66%
26,COP1(=S)c2c(C)nn(CCC#N)c2N=C(c2ccc(F)cc2)N1C (centres undefined),inactive: -4.73%
27,O=C(COc1ccccc1)OC1CN2CCC1CC2 (centres undefined),inactive: 5.79%
28,O=C(OC1CN2CCC1CC2)C12CC3CC(CC(C3)C1)C2 (centres undefined),inactive: -0.18%
29,CCN(CC)C(=S)SC(NC=O)C(Cl)(Cl)Cl (centres undefined),inactive: -3.12%
